Measured values from ChEMBL document CHEMBL1147615, “Design and synthesis of novel small molecule N/OFQ receptor antagonists” (2004).

Protein sequences, listed by entry. Tags and fused reporters are not part of them.
UniProt P41146, whole entry: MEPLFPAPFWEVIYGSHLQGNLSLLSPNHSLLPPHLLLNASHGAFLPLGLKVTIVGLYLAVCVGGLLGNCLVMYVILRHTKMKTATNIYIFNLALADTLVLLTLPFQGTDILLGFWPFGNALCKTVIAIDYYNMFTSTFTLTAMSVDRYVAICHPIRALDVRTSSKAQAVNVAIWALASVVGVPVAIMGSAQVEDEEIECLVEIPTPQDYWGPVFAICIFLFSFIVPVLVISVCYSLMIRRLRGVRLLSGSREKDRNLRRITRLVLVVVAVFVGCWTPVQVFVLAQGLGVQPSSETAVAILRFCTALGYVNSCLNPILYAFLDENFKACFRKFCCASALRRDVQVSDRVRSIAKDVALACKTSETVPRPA
UniProt P35372, whole entry: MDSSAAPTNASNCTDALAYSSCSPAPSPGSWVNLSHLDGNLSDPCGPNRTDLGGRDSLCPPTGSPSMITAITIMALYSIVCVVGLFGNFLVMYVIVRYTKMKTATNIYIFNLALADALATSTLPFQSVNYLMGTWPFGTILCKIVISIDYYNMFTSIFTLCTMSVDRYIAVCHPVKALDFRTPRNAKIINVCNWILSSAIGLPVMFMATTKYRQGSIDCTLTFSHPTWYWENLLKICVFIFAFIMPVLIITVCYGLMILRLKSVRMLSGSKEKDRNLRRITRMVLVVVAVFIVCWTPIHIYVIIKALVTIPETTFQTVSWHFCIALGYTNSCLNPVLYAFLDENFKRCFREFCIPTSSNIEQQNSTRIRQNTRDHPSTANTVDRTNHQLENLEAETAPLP

How the values were obtained:
[1] = target: Nociceptin receptor (Homo sapiens) (UniProt P41146); test: Activity on Nociceptin/orphanin FQ (N/OFQ) receptor was determined by GTPgammaS functional assay using recombinant HEK293 cells; conditions: filed as agonist
[2] = target: Mu-type opioid receptor (Homo sapiens) (UniProt P35372); test: Activity was determined for the compound against the Mu opioid receptor by GTPgammaS functional assay using recombinant HEK293 cells; PA: Partial antagonist; conditions: filed as antagonist

Structure (SMILES): O=C1N[C@@H]2CCCC[C@H]2N1C1CCN(CCC(c2ccccc2)c2ccccc2)CC1
- Activity [1]: Agonist
- Activity [2]: Partial antagonist
